# An excerpt weighted towards active compounds, which were near 2.1% of everything screened.
# Yeast UUG start: alters start codon recognition fidelity in yeast | S. cerevisiae UUG-firefly luciferase reporter, luminescence/redox ratio | activity score, % at 18.7 µM | hit rate 0.13% among 350,000 | AID 602363;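 active means replicate mean at a twofold rise or more, about +100% in these data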;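 further: firefly luciferase made from a UUG start codon reports start codon fidelity; reporter light over untreated wells divided by growth signal over untreated wells; some hits fall short of that in this replicate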
# Wnt bcat act: activates Wnt/beta-catenin signaling in a reporter cell assay. activator, plate reader. activation, % at 9.35 µM. 300,000 tested, 1.2% active. AID 743398; in the data active = activation above about 30%, passing the limit was not always enough; inconclusive = no clear call, values can overlap the other calls;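 also: 0% = neutral control wells and 100% = positive control wells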
# MITF act: increases MITF-driven TRPM1 promoter luciferase signal | SK-MEL-5 TRPM1-promoter luciferase, 24 h; % of positive control, neutral wells = 0 | AID 588334 | activation, % at 12.5 µM | 300,000 tested, 0.75% active;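 active = mean activation of at least 80% with every replicate also reaching 80%; inconclusive = mean reaches 80% but some replicate falls short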;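 also: 0% = neutral control wells and 100% = parthenolide positive control wells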
# miR122 inh: blocks miR-122 activity in Huh7 sensor cells; Huh7 miR-122 Renilla luciferase sensor, 48 h; neutral wells = 0, positive control = 100; 340,000 tested, 0.3% active; AID 602342; activation (reporter increase), % at 12.5 µM;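 active = mean replicate activation score at least 90 and every replicate individually at or above 90; inconclusive = only one of the two criteria met; inactive = neither criterion met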;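 also: higher luciferase means less miR-122 activity so hits act as miR-122 inhibitors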
# PGC1a acetyl inh: modulators of PGC1a acetylation | U2OS PGC1a acetylation, AlphaScreen anti-acetyl-lysine; with virally co-expressed GCN5 acetyltransferase | 350,000 tested, 0.17% active | inhibition, % at 15.6 µM;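 active = every replicate shows inhibition of at least 40%; inconclusive = mean inhibition at least 40% but some replicate below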;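 also: 0% = neutral control wells and 100% = positive control wells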
# MITF TRPM1 inh: inhibitors of MITF-driven TRPM1 promoter in melanoma cells | AID 488899 | SK-MEL-5 TRPM1 promoter luciferase, 24 h | 330,000 tested, 0.83% active | inhibition, % at 12.5 µM;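 active = mean inhibition across replicates of 60% or more, whatever share of single replicates reaches that level; inconclusive = some that reach 60%, reason not given; inactive = mean inhibition across replicates below 60%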
# Active calls of the source: *; ? = inconclusive; . = no result; [ ] = remark or other dose.
Yeast UUG start	Wnt bcat act	MITF act	miR122 inh	PGC1a acetyl inh	MITF TRPM1 inh	smiles
-1	.	.	3[16.7 µM]	7	.	COCC#Cc1ccc([C@@H]2[C@H]3CN(S(=O)(=O)c4ccccc4F)CCCCN3[C@H]2CO)cc1
-7	.	.	-6[16.7 µM]	-5	.	C[C@H]1CN([C@@H](C)CO)C(=O)c2cc(C#Cc3ccncc3)cnc2O[C@H]1CN(C)C(=O)c1ccccc1F
-1	.	.	3[16.7 µM]	9	.	CO[C@@H]1CN(C)C(=O)c2ccc(NS(C)(=O)=O)cc2OC[C@H](C)N(CC2CCOCC2)C[C@H]1C
-1	.	.	0[16.7 µM]	-3	.	C[C@H](CO)N1C[C@H](C)[C@@H](CN(C)C)Oc2ccc(NC(=O)Nc3cccc4ccccc34)cc2CC1=O
.	-1	-74	3	.	76*	Cc1cccc(/C=N/Nc2ccc3ccccc3n2)c1
-89	-5	-88	15	-2	90*	C(=N\Nc1ccc2ccccc2n1)/c1ccc2c(c1)OCCO2
-46	35*	.	1	9	3	C(=N\Nc1nc2ccccc2[nH]1)/c1ccc2c(c1)OCCO2
-17	-7	-2	-5	-1	2	COc1cc(/C=N\Nc2nc3ccccc3[nH]2)cc(OC)c1OC
5	.	.	-2[16.7 µM]	1	.	CN(C)C(=O)C[C@H]1CC[C@H]2[C@@H](COc3ccc(NC(=O)C4CCOCC4)cc3C(=O)N2C)O1
.	.	.	5[16.7 µM]	-7	.	COc1ccccc1C(=O)Nc1ccc2c(c1)OC[C@@H](C)N(CC1CC1)C[C@@H](C)[C@H](OC)CN(C)C2=O
-13	.	.	0[16.7 µM]	9	.	O=C(C[C@H]1C[C@H]2c3cc(NS(=O)(=O)c4ccc(F)cc4)ccc3O[C@H]2[C@@H](CO)O1)NCc1ccccn1
-19	-16	-50	5	85*	50	Cc1ccc(-n2cccc2C(=S)N=P(N(C)C)(N(C)C)N(C)C)cc1
.	45*	27	.	1	-27	CS/C(N)=N/C(=S)Nc1cccc(Cl)c1
-17	-1	-2	12	.	3	NC(=S)Nc1cccc(Cl)c1
-20	.	.	-36[16.7 µM]	79*	.	CN(C[C@H]1N[C@@H](CO)[C@@H]1c1ccc(C2=CCCC2)cc1)C(=O)c1ccc(F)cc1
-6	.	.	0[16.7 µM]	-19	.	CN(C[C@H]1N[C@@H](CO)[C@@H]1c1ccc(C2=CCCC2)cc1)C(=O)c1ccncc1
4	.	.	54[16.7 µM]	-10	.	CCCNC(=O)C[C@@H]1CC[C@H]2[C@H](COc3ccc(NC(=O)COC)cc3C(=O)N2C)O1
5	-4	4	-3	-3	3	Cc1ccc(NC(=O)CCCOc2ccccc2)cc1S(=O)(=O)N1CCOCC1
-9	.	.	247*	.	9	Cc1ccc(NC(=O)C(=O)c2c(-c3ccccc3)cc3ccccn23)cc1S(=O)(=O)N1CCOCC1
2	0	7	107*	-17	-6	CCOc1ccc(S(=O)(=O)/N=C(/Nc2ccc(C)c(S(=O)(=O)N3CCOCC3)c2)c2ccccc2)cc1
-3	0	0	9	-3	-1	Cc1ccc(NC(=O)CSc2ccccc2)cc1S(=O)(=O)N1CCOCC1
.	22	92*	.	5	-96	CSc1nsc(N/N=C/c2ccc3c(c2)OCO3)c1C#N
7	.	.	6[16.7 µM]	-3	.	Cc1noc(C)c1NC(=O)N(C)C[C@@H]1Oc2ccc(NC(=O)Nc3ccc(C(F)(F)F)cc3)cc2C(=O)N([C@@H](C)CO)C[C@H]1C
5	.	.	-5[16.7 µM]	-7	.	C[C@@H]1CN([C@@H](C)CO)C(=O)c2cccc(NC(=O)Nc3ccc(C(F)(F)F)cc3)c2O[C@@H]1CN(C)CC1CCCCC1
-24	43*	.	-1	.	.	CCOc1ccc(N2C(=O)c3ccccc3C2O)cc1 (stereo not given)
.	.	.	-9[16.7 µM]	2	.	C[C@@H]1CCCCO[C@@H](CN(C)CC2CCCCC2)[C@H](C)CN([C@@H](C)CO)C(=O)c2cc(NC(=O)c3ccncc3)ccc2O1
.	-8	-77	-16	-27	77*	COc1ccc2nc(NN=C(C)c3ccccn3)cc(C)c2c1
-22	-2	-74	-2	12	74*	O=C(N/N=C/c1cc([N+](=O)[O-])ccc1O)c1cccc2cc[nH]c12
21	.	.	3[16.7 µM]	-1	.	Cc1noc(C)c1NC(=O)Nc1ccc2c(c1)C(=O)N([C@@H](C)CO)C[C@H](C)[C@@H](CN(C)S(=O)(=O)c1c(C)noc1C)OCCCC[C@@H](C)O2
5	?	99*	-5	-4	-97	COc1ccc(C(=O)N=c2sc3c(C)ccc(OC)c3n2C)cc1OC

# Next part, starting with the last 5 of the part before.
Yeast UUG start	Wnt bcat act	MITF act	miR122 inh	PGC1a acetyl inh	MITF TRPM1 inh	smiles
.	.	.	-9[16.7 µM]	2	.	C[C@@H]1CCCCO[C@@H](CN(C)CC2CCCCC2)[C@H](C)CN([C@@H](C)CO)C(=O)c2cc(NC(=O)c3ccncc3)ccc2O1
.	-8	-77	-16	-27	77*	COc1ccc2nc(NN=C(C)c3ccccn3)cc(C)c2c1
-22	-2	-74	-2	12	74*	O=C(N/N=C/c1cc([N+](=O)[O-])ccc1O)c1cccc2cc[nH]c12
21	.	.	3[16.7 µM]	-1	.	Cc1noc(C)c1NC(=O)Nc1ccc2c(c1)C(=O)N([C@@H](C)CO)C[C@H](C)[C@@H](CN(C)S(=O)(=O)c1c(C)noc1C)OCCCC[C@@H](C)O2
5	?	99*	-5	-4	-97	COc1ccc(C(=O)N=c2sc3c(C)ccc(OC)c3n2C)cc1OC
-7	20	54	.	.	-64	COc1cccc(C(=O)N=c2sc3c(C)ccc(OC)c3n2C)c1
0	43*	79	-3	-16	-80	COc1ccc(C(=O)N=c2sc3ccccc3n2C)cc1OC
-19	24	109*	-3	19	-98	Cc1csc(NC(=S)NC(=O)c2ccccc2)n1
-41	36*	19	-6	-1	-20	Cc1csc(NC(=O)c2ccc3nc[nH]c3c2)n1
-5	44*	38	1	11	-35	COc1cccc(C(=O)Nc2nc(C)cs2)c1
-19	14	.	-1	2	.	Cc1csc(NC(=O)c2ccccc2)n1
-9	18	86*	30	.	-88	CCCc1nnc(NC(=O)c2cccc(OC)c2)s1
.	-1	.	.	.	2	COc1cccc(C(=O)Nc2nnc(Cc3ccc(OC)c(OC)c3)s2)c1
7	.	.	-7[16.7 µM]	6	.	COc1ccccc1C(=O)N1C[C@@H]2[C@H](c3ccccc31)[C@@H](CO)N2C(=O)Nc1ccccc1
25	-3	-2	.	.	7	C[C@@H]1CC[C@]2(C(=O)O[C@@H]3O[C@H](CO)[C@@H](O)[C@H](O)[C@H]3O)CC[C@]3(C)C(=CCC4[C@@]5(C)CC[C@H](O[C@@H]6OC[C@H](O)[C@H](O[C@@H]7O[C@H](CO)[C@@H](O)[C@H](O)[C@H]7O)[C@H]6O)C(C)(C)C5CC[C@]43C)C2[C@]1(C)O (stereo not given in full)
-3	.	-65	-17	-10	68*	COc1ccc(/C=C\C(=O)O[C@@H]2C(O)C(O[C@@H]3OC(C)[C@H](O[C@@H]4OCC(O[C@H]5O[C@H](CO)[C@@H](O)C(O)C5O)C(O)C4O)C(O)C3O)[C@H](OC(=O)[C@]34CCC(C)(C)C[C@@H]3C3=CCC5[C@@]6(C)CC(O)C(O[C@@H]7OC(CO)C(O)[C@H](O)[C@H]7O)[C@@](C)(C(=O)O)C6CC[C@@]5(C)[C@]3(CO)CC4)O[C@H]2C)cc1 (stereo not given in full)
-27	-3	118*	-6	2	-113	CC(C)(C)c1ccc(-c2noc(-c3ccno3)n2)cc1
-25	-3	2	0	9	-3	CC(C)(C)c1ccc(-c2nc(-c3ccncc3)no2)cc1
.	.	.	.	-7	.	COc1cccc(CNC(=O)C[C@H]2C=C[C@H](NC(=O)C3CCC3)[C@@H](CO)O2)c1
.	4	-10	.	65*	13	CSc1n[nH]c(NC(=O)c2c(-c3c(Cl)cccc3Cl)noc2C)n1

# Screening data: PubChem, Broad Institute
